## Binding of CDR-mutated scFvs to a peptide of the spike HR2 region

Reference: Engelhart et al. 2022, doi:10.1038/s41597-022-01779-4. File: FLAb, binding data.

Target: peptide PDVDLGDISGINAS, taken from heptad repeat 2 (HR2) of SARS-CoV-2 spike.

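The parent was found by panning a naive human phage display library on the peptide. Library AAYL50 holds single substitutions and randomly drawn double and triple substitutions in the CDRs. In AlphaSeq, yeast of one mating type display the scFv and yeast of the other type display the target. Pairs that bind mate more often; barcode pairs of the diploids are counted by sequencing. The ratio of observed to expected reads was calibrated, replicate by replicate, on BCL2-family standards whose Kd was known from biolayer interferometry. There are three technical replicates.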

The variants keep the heavy chain, the linker and the frameworks of Ab-14 (scFv order VH, a 15-residue (Gly4Ser)3 linker, VL).
VH: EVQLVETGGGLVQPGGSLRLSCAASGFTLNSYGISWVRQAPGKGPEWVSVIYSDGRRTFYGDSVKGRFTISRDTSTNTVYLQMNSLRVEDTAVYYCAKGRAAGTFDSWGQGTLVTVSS
VL: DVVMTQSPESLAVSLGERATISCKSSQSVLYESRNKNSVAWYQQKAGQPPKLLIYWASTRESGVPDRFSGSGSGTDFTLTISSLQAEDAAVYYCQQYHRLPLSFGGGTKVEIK

Substitutions are numbered in sequence along the VL above, starting at 1 (not Kabat). Scale: log10 of Kd in nM, estimated from mating counts; low values are strong binders. The mean shown is taken over the replicates in which the pair was detected. "n.d." marks a missing value. The strain was present, yet no cells mated with the target were sequenced in that replicate, which points to weak or no binding.

| changes | log10 Kd (nM) by replicate | mean log10 Kd (nM) | signal with controls |
|---|---|---|---|
| Q27G/V39T/Y97Q | n.d. / n.d. / n.d. | n.d. | 0 of 9 |
| K24T/Q27Y/A40D | 5.38 / n.d. / n.d. | 5.38 | 0 of 9 |
| K24E/V29F/S33W | 4.10 / 3.06 / 5.06 | 4.07 | 2 of 9 (4.08) |
| A40R/R60N/S62D | 5.79 / n.d. / n.d. | 5.79 | 1 of 9 (3.74) |
| K24G/Y31P/Q96R | 1.42 / 1.38 / 1.41 | 1.41 | 8 of 9 (4.41) |
| R34K/P101R | 0.68 / 0.87 / 0.84 | 0.80 | 7 of 9 (4.91) |
| S25M/E32M/A40M | n.d. / n.d. / n.d. | n.d. | 0 of 9 |
| K36D/Y97H/P101L | n.d. / n.d. / 5.12 | 5.12 | 0 of 9 |
| K36T/S38W/Q96I | 4.09 / n.d. / n.d. | 4.09 | 0 of 9 |
| R34D/A57P/H98A | 3.26 / n.d. / 3.49 | 3.38 | 0 of 9 |
| V29C/K36N/N37D | 2.59 / 2.68 / 2.59 | 2.62 | 4 of 9 (4.09) |
| H98D/R99S/L102D | n.d. / 4.27 / n.d. | 4.27 | 0 of 9 |
| S28Q/Q96R/H98R | 1.64 / 1.57 / 1.71 | 1.64 | 3 of 9 (4.24) |
| N35G/A57F/Q96E | n.d. / 4.56 / 4.82 | 4.69 | 6 of 9 (4.43) |
| S28R/S38I/V39Q | n.d. / n.d. / n.d. | n.d. | 0 of 9 |
| L30F/W56V/T59H | 3.57 / 4.21 / 4.09 | 3.96 | 3 of 9 (4.30) |
| R34D/N37T/E61K | n.d. / 3.84 / 3.37 | 3.60 | 1 of 9 (4.74) |
| Q27F/A57I | n.d. / 4.82 / n.d. | 4.82 | 1 of 9 (3.41) |
| S25D/T59E | 0.07 / 0.21 / 0.23 | 0.17 | 0 of 9 |
| S33F/S58E/Y97P | 3.04 / 3.25 / 4.36 | 3.55 | 2 of 9 (3.58) |
| V29D/A40N/S62M | n.d. / n.d. / n.d. | n.d. | 1 of 9 (4.74) |
| K24L/N37G/A40W | n.d. / n.d. / n.d. | n.d. | 1 of 9 (3.90) |
| N37C/T59V/H98K | n.d. / n.d. / n.d. | n.d. | 1 of 9 (4.16) |
| N35C/A57W | 1.79 / 1.64 / 1.74 | 1.72 | 2 of 9 (4.46) |
| K24R/S62P/Y97P | n.d. / n.d. / 3.51 | 3.51 | 2 of 9 (3.80) |
| S28V/N37V/Q95N | n.d. / n.d. / n.d. | n.d. | 0 of 9 |
| E32N/A40P/Q96R | n.d. / 3.91 / n.d. | 3.91 | 5 of 9 (4.42) |
| N35V/P101Y | n.d. / n.d. / n.d. | n.d. | 0 of 9 |
| S25I/A40Q/L102Y | 4.84 / 4.17 / 3.95 | 4.32 | 1 of 9 (5.42) |
| S38W/V39D/S62H | 5.53 / n.d. / n.d. | 5.53 | 2 of 9 (4.29) |
| S28D/E32K/Y97S | n.d. / 4.25 / n.d. | 4.25 | 8 of 9 (4.62) |
| W56H/S58V/R99H | 0.27 / 0.53 / 0.43 | 0.41 | 0 of 9 |
| S25Q/K36Y/E61R | 1.31 / 1.21 / 2.92 | 1.81 | 0 of 9 |
| K36G/E61L/L100G | n.d. / n.d. / n.d. | n.d. | 1 of 9 (4.95) |
| S26M/L100M | 1.42 / 1.49 / 1.43 | 1.45 | 0 of 9 |
| S25W/Q96M/P101A | 1.23 / 1.43 / 1.96 | 1.54 | 3 of 9 (5.02) |
| S38P/T59K | 3.89 / 2.54 / 3.01 | 3.15 | 1 of 9 (3.59) |
| K24N/K36R/E61V | 0.64 / 0.75 / 0.80 | 0.73 | 1 of 9 (3.50) |
| V39C/Y97G | 4.80 / 4.54 / 4.01 | 4.45 | 1 of 9 (4.18) |
| E32V/E61L/L102M | n.d. / n.d. / n.d. | n.d. | 0 of 9 |
| K24E/K36Q/S62I | 0.83 / 0.98 / 1.12 | 0.98 | 1 of 9 (5.01) |
| V39N/A57V/S103Y | n.d. / n.d. / 4.52 | 4.52 | 3 of 9 (4.33) |
| T59L/S62A/H98S | 0.39 / 0.70 / 0.51 | 0.53 | 3 of 9 (5.02) |
| V29P/S58R/R99D | 2.84 / 1.82 / 2.36 | 2.34 | 1 of 9 (3.08) |

The last 6 entries again:

| changes | log10 Kd (nM) by replicate | mean log10 Kd (nM) | signal with controls |
|---|---|---|---|
| V39C/Y97G | 4.80 / 4.54 / 4.01 | 4.45 | 1 of 9 (4.18) |
| E32V/E61L/L102M | n.d. / n.d. / n.d. | n.d. | 0 of 9 |
| K24E/K36Q/S62I | 0.83 / 0.98 / 1.12 | 0.98 | 1 of 9 (5.01) |
| V39N/A57V/S103Y | n.d. / n.d. / 4.52 | 4.52 | 3 of 9 (4.33) |
| T59L/S62A/H98S | 0.39 / 0.70 / 0.51 | 0.53 | 3 of 9 (5.02) |
| V29P/S58R/R99D | 2.84 / 1.82 / 2.36 | 2.34 | 1 of 9 (3.08) |

Background: pairings of library AAYL50 with three empty control strains gave a value in 18% of cases (median 4.19, 5th percentile 2.99). Values in that range, when seen in few replicates, are hard to tell from nonspecific mating. The control count says in how many pairings with the empty strains this scFv gave a signal, with their mean in brackets. For reference, the parent read 0.65 as the reference entry and 1.68 as a member of this library.